Reference: patent US20220062291A1, “COMPOSITIONS AND METHODS OF TREATING CANCERS BY ADMINISTERING A PHENOTHIAZINE-RELATED DRUG THAT ACTIVATES PROTEIN PHOSPHATASE 2A (PP2A) WITH REDUCED INHIBITORY ACTIVITY TARGETED TO THE DOPAMINE D2 RECEPTOR AND ACCOMPANYING TOXICITY” (DANA-FARBER CANCER INSTITUTE, INC., priority 2018, published 2022)

Chains of the proteins cited; added tags and fusions are not shown.
UniProt P02550, whole entry: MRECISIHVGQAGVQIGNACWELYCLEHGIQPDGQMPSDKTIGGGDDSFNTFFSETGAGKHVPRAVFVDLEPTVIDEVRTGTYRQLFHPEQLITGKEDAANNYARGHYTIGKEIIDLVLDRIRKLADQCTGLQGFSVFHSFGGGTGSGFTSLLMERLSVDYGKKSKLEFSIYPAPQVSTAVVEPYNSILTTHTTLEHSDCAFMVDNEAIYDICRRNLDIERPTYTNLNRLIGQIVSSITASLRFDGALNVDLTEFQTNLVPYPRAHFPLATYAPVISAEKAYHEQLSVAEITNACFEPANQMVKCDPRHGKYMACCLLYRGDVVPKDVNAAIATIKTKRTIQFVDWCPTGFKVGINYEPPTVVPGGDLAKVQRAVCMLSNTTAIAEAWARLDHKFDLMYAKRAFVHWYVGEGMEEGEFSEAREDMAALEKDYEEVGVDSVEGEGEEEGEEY
UniProt P02554, whole entry: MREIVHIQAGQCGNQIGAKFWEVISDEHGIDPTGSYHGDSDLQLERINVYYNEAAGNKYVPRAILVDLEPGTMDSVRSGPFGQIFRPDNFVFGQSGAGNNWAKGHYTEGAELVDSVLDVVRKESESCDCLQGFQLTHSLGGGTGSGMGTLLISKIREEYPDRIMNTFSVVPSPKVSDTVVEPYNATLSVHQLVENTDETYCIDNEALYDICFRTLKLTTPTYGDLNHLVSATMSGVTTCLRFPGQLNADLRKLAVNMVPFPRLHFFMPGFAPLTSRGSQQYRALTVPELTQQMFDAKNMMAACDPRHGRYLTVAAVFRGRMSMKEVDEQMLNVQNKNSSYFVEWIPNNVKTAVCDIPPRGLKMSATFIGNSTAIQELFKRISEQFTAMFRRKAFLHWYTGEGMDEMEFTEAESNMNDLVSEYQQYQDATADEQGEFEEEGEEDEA

Experiments:
[1] = tested on: PLK1, PLK4, AURKA, KIF11, SASS6, RCC1, HAUS8, TPX2, PCNT, CENPJ and TUBG1 in KOPT-K1 cells; assay: Relative mRNA expression of spindle monopolarity genes; assay type: cell-based, human; details: 10 μM, 6 hours
Method: The relative mRNA expression of genes whose inducible CRISPR-cas9 knockout causes cell cycle arrest in prometaphase yielding spindle monopolarity (PLK1, PLK4, AURKA, KIF11, SASS6, RCC1, HAUS8, TPX2, PCNT, CENPJ and TUBG1) (McKinley et al., Dev. Cell 40:405-420 (2017)) was evaluated in KOPT-K2 cell lines. KOPT-K1 cells were treated with DMSO as control, PPZ at 10 μM or iPAP1 at 1 μM for 6 hours. The results are illustrated in FIG. 33.

[2] = target: tubulin from porcine brain (Sus scrofa, UniProt P02550+P02554); assay: Fluorescence-based tubulin polymerization assay; details: concentrations of up to 2.5 or 5 μM
PP2A = PP2A phosphatase activity in treated KOPT-K1 cells; assay type: cell-based, human; details: 10 μM
Method: Cells were treated with PPZ at 10 μM for three hours before the activity of PP2A was quantified. Data are presented as means±s.d. (n=3, biological replicates). KO; knock out. **P<0.01, ***P<0.001 by student's t-test.
For IC50 calculation, KOPT-K1 cells were treated with each of the compounds at various concentrations for 72 hours, followed by the determination of viable cell numbers with PrestoBlue® cell viability reagent. For the PP2A phosphatase activity assay, KOPT-K1 cells were treated with each of the compounds at 10 μM for 3 hours before phosphatase activity was measured. Dopamine D2 receptor activity was monitored in HEK293T cells coexpressing the dopamine D2 receptor, modified G protein and SRE luciferase reporter. Cells were treated with each of the compound at 10 μM for 3 hours, then lysed for the luciferase reporter assay.
Three-dimensional plots of PPZ analogs representing their inhibitory concentration 50 (IC50) values in a T-ALL cell line (KOPT-K1 cells), as well as PP2A activation and DRD2 inhibition potentials (FIG. 23A). For IC50 calculations, KOPT-K1 cells were treated with each of the compound at various concentrations for 72 hours, then their viability was examined by PrestoBlue® Cell Viability Reagent (Thermo Fisher Scientific). […] DRD2 activity was monitored in HEK293T cells expressing DRD2, modified G protein and SRE luciferase reporter. […]

## OCCN1CCN(CCCN2c3ccccc3Sc3ccc(Cl)cc32)CC1 [PPZ, perphenazine, reference compound]
[1]
  relative mRNA expression: significantly down-regulated the expression levels of most of these genes
[2]
  inhibition of tubulin polymerization: inhibition of tubulin polymerization was not detected
PP2A
  phosphatase activity of PP2A relative to basal level: up to twice its basal level; also recorded: up to two-fold

Entries after “also recorded” stand apart in the source; their conditions may differ.
